Legend:
[1] = Selectivity index, ratio of Ki for mouse macrophage iNOS to KI for rat nNOS
[2] = Selectivity index, ratio of Ki for bovine eNOS to KI for rat nNOS

Ratio Ki [1]: 86 | Ratio Ki [2]: 119
SMILES: N=C(Nc1cccc(OC[C@@H]2C[C@@H](Oc3cccc(NC(=N)c4cccs4)c3)CN2)c1)c1cccs1

Source: ChEMBL document CHEMBL3351383, “Combination of chiral linkers with thiophenecarboximidamide heads to improve the selectivity of inhibitors of neuronal nitric oxide synthase” (Bioorg Med Chem Lett, 2014)
